Values quoted from earlier work, collected in patent publication US20110038855A1, “TRAIL AND METHODS OF MODULATING T CELL ACTIVITY AND ADAPTIVE IMMUNE RESPONSES USING TRAIL” (priority 2005, published 2011).

Test system: helpless CD8+ T cells
Details: cytokine provided during secondary antigenic encounter; Janssen et al., Nature 421:852 (2003); cited from earlier work

**Q.** Which “re-expansion of helpless CD8+ T cells upon restimulation” value does the source give for IL-2 here?
**A.** can permit their re-expansion
